Laboratory results from patent publication US7973012B2, “C-phenyl glycitol compound” (Taisho Pharmaceutical Co., Ltd, priority 2006, dated 2011).

Amino acid sequences for entries named in this document (tags omitted).
UniProt P13866, whole entry: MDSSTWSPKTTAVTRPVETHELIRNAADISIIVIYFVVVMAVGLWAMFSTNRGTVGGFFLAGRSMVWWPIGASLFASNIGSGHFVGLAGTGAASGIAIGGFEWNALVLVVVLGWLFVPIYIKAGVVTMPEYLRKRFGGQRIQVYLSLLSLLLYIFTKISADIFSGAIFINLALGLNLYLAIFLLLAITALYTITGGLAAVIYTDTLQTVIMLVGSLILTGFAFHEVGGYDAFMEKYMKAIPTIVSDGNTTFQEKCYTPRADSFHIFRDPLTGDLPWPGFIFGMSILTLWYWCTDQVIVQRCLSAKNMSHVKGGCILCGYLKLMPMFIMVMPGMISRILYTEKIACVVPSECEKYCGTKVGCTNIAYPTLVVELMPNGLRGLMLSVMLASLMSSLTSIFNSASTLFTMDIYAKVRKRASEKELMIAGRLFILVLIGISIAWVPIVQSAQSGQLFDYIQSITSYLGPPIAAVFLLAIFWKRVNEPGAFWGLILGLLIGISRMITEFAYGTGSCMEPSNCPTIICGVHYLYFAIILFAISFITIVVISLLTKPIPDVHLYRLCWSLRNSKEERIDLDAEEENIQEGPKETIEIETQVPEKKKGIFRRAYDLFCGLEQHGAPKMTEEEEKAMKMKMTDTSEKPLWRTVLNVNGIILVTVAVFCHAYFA
UniProt P31639, whole entry: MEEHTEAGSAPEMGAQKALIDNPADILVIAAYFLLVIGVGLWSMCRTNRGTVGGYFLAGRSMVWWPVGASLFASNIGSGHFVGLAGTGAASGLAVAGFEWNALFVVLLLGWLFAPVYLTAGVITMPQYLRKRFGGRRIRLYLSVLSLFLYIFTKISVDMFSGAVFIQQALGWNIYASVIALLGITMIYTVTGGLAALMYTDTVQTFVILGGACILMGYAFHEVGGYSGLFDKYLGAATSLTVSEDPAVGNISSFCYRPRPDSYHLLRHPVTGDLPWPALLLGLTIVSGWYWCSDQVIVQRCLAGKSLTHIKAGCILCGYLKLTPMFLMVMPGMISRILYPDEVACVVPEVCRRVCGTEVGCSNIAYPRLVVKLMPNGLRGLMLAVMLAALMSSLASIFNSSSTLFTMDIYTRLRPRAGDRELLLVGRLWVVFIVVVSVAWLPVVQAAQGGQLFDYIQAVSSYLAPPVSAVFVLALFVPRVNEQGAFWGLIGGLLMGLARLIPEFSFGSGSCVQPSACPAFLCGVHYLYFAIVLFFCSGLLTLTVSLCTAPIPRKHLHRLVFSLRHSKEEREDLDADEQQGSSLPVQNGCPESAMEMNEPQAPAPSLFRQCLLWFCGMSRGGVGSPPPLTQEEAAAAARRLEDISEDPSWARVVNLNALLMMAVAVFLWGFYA

Columns and labels:
human SGLT1 = human SGLT1 (Homo sapiens, UniProt P13866); test: Inhibition test of sodium-dependent sugar uptake in CHO-k1 cells stably expressing human SGLT1; settings: read-out: SGLT1 IC50, [14C]methyl α-D-glucopyranoside uptake, 37° C., 30 minutes
Protocol: (§1) An SGLT1 sequence (NM_000343) was reverse-transcripted from human small intestinal mRNA, then amplified, and then introduced into pCMV-tag5A from Stratagene Corporation. An SGLT2 sequence (NM_003041) was prepared from human nephric mRNA as with the above method, and then introduced into pcDNA3.1+hygro from Invitrogen Corporation. Each cloned sequence was confirmed to be identical with the reported sequence.
(§2) The human SGLT1 and human SGLT2 expression vectors were transfected into CHO-k1 cells by using Lipofectamine 2000 from Invitrogen Corporation. The SGLT expression cells were incubated in the presence of Geneticin (SGLT1) or Hygromycin B (SGLT2) at a 500 μg/mL concentration to select resistant strains, and specific activity of sugar uptake was obtained as an indicator by the following system.
(§3) Cells stably expressing human SGLT1 and human SGLT2 were used for the inhibition test of sodium-dependent glucose uptake.
(§4) The cells were incubated in a pretreatment buffer A (200 μL for SGLT1, and 2 mL for SGLT2) for 20 minutes. […] After a liquid scintilater was added thereto and mixed sufficiently, radioactivity was measured with microBETA (SGLT1) or a liquid scintillation counter from Beckman Coulter, Inc (SGLT2). […]

human SGLT2 = human SGLT2 (Homo sapiens, UniProt P31639); test: Inhibition test of sodium-dependent sugar uptake in CHO-k1 cells stably expressing human SGLT2; settings: read-out: SGLT2 IC50, [14C]methyl α-D-glucopyranoside uptake, 37° C., an hour
Protocol: as §1, §2, §3, §4

SMILES: Cc1cc(O)c([C@@H]2O[C@H](CO)[C@@H](O)[C@H](O)[C@H]2O)cc1Cc1ccc(CNC(=O)NC(CO)(CO)CO)cc1
- pIC50 (human SGLT1): 6.42
- pIC50 (human SGLT2): 6.79

pIC50: −log10 of the molar value.
